# Measured values from patent US12583900B2, “Peptide conjugates and methods of use” (The Scripps Research Institute, priority 2019, dated 2026).
# Chains of the proteins cited; added tags and fusions are not shown. Residues count along the entry.
# UniProt P02770, 25-608: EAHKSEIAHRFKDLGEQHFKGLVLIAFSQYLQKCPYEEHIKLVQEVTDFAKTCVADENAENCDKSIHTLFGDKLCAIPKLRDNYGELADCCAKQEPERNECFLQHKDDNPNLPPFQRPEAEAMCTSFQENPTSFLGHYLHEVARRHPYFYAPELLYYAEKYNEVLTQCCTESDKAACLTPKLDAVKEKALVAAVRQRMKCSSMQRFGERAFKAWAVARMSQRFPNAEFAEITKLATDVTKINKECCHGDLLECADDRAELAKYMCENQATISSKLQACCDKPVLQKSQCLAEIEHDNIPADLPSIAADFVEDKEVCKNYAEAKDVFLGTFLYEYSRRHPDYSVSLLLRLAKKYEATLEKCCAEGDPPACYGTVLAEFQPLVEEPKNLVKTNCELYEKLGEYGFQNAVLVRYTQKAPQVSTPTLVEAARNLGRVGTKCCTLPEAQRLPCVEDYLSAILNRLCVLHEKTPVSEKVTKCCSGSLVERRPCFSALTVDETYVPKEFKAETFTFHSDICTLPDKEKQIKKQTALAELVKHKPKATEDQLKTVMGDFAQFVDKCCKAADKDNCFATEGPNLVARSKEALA
# UniProt P02768, 25-609: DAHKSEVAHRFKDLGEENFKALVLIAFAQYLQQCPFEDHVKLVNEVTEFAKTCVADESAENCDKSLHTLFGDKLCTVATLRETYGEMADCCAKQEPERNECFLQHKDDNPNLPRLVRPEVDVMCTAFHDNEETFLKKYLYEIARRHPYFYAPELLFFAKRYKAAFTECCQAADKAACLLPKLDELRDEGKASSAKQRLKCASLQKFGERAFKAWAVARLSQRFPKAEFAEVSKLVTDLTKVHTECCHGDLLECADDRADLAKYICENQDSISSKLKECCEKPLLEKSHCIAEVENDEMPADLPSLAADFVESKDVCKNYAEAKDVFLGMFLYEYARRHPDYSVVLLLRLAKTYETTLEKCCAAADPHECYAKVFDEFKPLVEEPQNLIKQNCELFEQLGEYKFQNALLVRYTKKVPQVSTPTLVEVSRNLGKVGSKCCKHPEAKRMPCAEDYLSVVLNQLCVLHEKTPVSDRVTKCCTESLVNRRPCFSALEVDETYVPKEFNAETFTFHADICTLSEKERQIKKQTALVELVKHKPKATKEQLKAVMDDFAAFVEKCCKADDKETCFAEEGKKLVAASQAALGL
# How the values were obtained:
# rat serum albumin (RSA) = rat serum albumin (RSA) (Rattus norvegicus, UniProt P02770); assay: Biacore SPR serum albumin binding (RSA)
# Description: Conjugate serum albumin binding affinities were measured directly using a Biacore surface plasmon resonance (SPR) assay, which were used to calculate the unbound fraction (fu) for each conjugate. Half-life was calculated using the steady-state volume of distribution (Vss) and clearance (CL) using the following equation: […]
# Predicted human half-lives based on allometric scaling corrected for albumin binding are shown in Table 19 alongside experimentally determined parameters for both rat (RSA) and human serum albumin (HSA). […] In addition no large species differences were observed.
# [1] = biological target: human serum albumin (HSA) (Homo sapiens, UniProt P02768); assay: Biacore SPR serum albumin binding (HSA); conditions: unbound fraction calculated from HSA binding affinity
# [2] = Plasma peptide stability in mouse plasma, LC-MS (QTOF)
Substance,"Kd (rat serum albumin (RSA); Biacore SPR, rat serum albumin) [µM]",fu RSA (rat serum albumin (RSA); unbound fraction calculated from RSA binding affinity) [%],fu HSA [1] [%],complete disappearance in mouse plasma (time) [2] [h],half-life in mouse plasma ([2]; 37° C.) [min]
semaglutide,17,3.3,0.69,–,–
SRAHQHSMETRTPDINPAWYTGRGIRPVGRF-NH2 [PrRP31],–,–,–,1,~11
